# Measured affinities in a library of Ab-14 light chain variants

Antigen: PDVDLGDISGINAS, a 14-residue peptide of the SARS-CoV-2 spike HR2 region.

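The parent was found by panning a naive human phage display library on the peptide. AAYL50 was designed without a model: most single CDR substitutions and a random sample of double and triple ones. AlphaSeq pools MATa yeast showing the antibodies with MATalpha yeast showing the peptide. Pairs that bind mate more often; barcode pairs of the diploids are counted by sequencing. Each replicate has its own calibration line, from reference interactions of the BCL2 family. The assay was run in three technical replicates.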

The variants keep the heavy chain, the linker and the frameworks of Ab-14 (scFv order VH, three GGGGS repeats, VL).
VH: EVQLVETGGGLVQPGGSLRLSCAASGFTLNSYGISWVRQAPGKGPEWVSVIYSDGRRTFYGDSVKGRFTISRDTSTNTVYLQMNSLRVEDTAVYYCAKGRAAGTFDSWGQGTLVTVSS
VL: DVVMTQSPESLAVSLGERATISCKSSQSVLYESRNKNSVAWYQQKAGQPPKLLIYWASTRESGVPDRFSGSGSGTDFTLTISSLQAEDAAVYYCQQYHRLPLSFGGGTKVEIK

Variants are written as CDR1, CDR2 and CDR3 of the light chain (limits as in the source). Parent: KSSQSVLYESRNKNSVA, WASTRES, QQYHRLPLS. Every variant below is changed at N37 of the VL (sequential numbering). The read-out is the apparent dissociation constant on a log10 scale (nM): the lower, the stronger. Where no diploid with the target was found in that replicate, the entry reads "nd": below detection, most likely a poor binder, though not proof of it. As a blank, each scFv also met three strains without target: over library AAYL50, 18% of these pairings were detected, typically at 4.19 and seldom below 2.99.

The variant KSSPSVLYESRNKPSVV | WASTRES | QQYHRLPLS gave nd, nd, nd.
The variant KSSQSVLYESRWKASVA | HASTRES | QQYHRLPLS gave 2.18, 1.89, 2.01.
The variant KSSQSVDYESRNKPSVA | WASLRES | QQYHRLPLS gave 1.46, 1.24, 1.23.
The variant KSSQSVLFESRNKSSVA | WASTRVS | QQYHRLPLS gave 1.17, 1.22, 1.33.
The variant KSSQSVLYESRWKGSVA | WASTRRS | QQYHRLPLS gave 4.53, 4.57, nd.
The variant KSSQSVLYESRNKESVA | WASTRES | QKYHYLPLS gave nd, nd, nd.
The variant KSSQSVLYESRNKCSVA | WESTRHS | QQYHRLPLS gave 3.36, 3.39, 4.03.
The variant VSSQSVLYESRGKTSVA | WASTRES | QQYHRLPLS gave 2.91, 2.60, 2.74.
The variant KSSQSVLSESRNKQSVA | WASTMES | QQYHRLPLS gave 4.29, nd, 2.79.
The variant KSSHSVLYESRNKLSVA | WASMRES | QQYHRLPLS gave 1.96, 1.86, 2.00.
The variant KSSQSVLYESRNKRSVA | WASTRES | QQYHRWPLS gave 3.76, nd, nd.
The variant KSSQSVAYESRNKRSVA | WASTRES | QWYHRLPLS gave 5.00, 3.77, 4.92.
The variant RSSQSVLGESRNKVSVA | WASTRES | QQYHRLPLS gave 1.44, 1.36, 1.73.
The variant KSSQSVLYESRNKQSVE | WASTRES | QQYHRNPLS gave nd, 5.13, nd.
The variant KSSQSVLYESRWKQSVA | WASTRES | DQYHRLPLS gave nd, nd, 5.79.
The variant VSSQSVLYESRNKSSVA | WASQRES | QQYHRLPLS gave 1.91, 1.77, 1.81.
The variant KSSQSVLYENRNKFSVA | WASTRES | QQYHRLPLS gave 1.46, 1.55, 1.59.
The variant KSSQSVWYESRNKDSVA | WRSTRES | QQYHRLPLS gave nd, nd, 3.25.
The variant KSSQSVLYEIRNKASVA | WASARES | QQYHRLPLS gave nd, nd, nd.
The variant KSSQSVLYEFRPKYSVA | WASTRES | QQYHRLPLS gave 3.22, 2.33, 3.11.
The variant HSSQSVLYESRNKTNVA | WASTRES | QQYHRLPLS gave 2.44, 2.61, 2.67.
The variant KSSQSVLYESGNKDSVA | LASTRES | QQYHRLPLS gave 1.17, 1.31, 1.11.
The variant KSSQSVLYESRNKRSVA | WASTNEF | QQYHRLPLS gave nd, nd, nd.
The variant KSSQSVLYESRNKESVM | WASTRES | QYYHRLPLS gave 3.85, 2.97, nd.
The variant KSSQSVLYESRNKVSVA | WAFTRES | DQYHRLPLS gave nd, nd, nd.
The variant KSSQSVLYESRNKKSVA | WASERES | QQYHRLGLS gave 1.00, 1.36, 1.41.
The variant KSSQSVLYESRNKVSVA | WFSTRES | QQYHRLPLS gave nd, nd, nd.
The variant KSSQSVLYESRWKTSVA | WASTRES | QQYHRDPLS gave 3.16, nd, 4.33.
The variant KSSQSVLIESRNKQSVA | WASTRES | QHYHRLPLS gave 1.74, 1.50, 1.60.
The variant KSSQSHLYESRNKDSVA | WASTRES | QQYHRLALS gave 1.09, 1.11, 1.33.
The variant KSSQMVLYESRNKWSVA | WASPRES | QQYHRLPLS gave nd, 4.23, nd.
The variant KSCQSVLYESRNKESVA | WASTGES | QQYHRLPLS gave 4.55, nd, 4.94.
The variant KSSQSVYYESRQKHSVA | WASTRES | QQYHRLPLS gave 0.60, 0.90, 0.74.
The variant KSSQGVLYESRNKDSVA | WYSTRES | QQYHRLPLS gave 0.62, 2.32, 1.87.
The variant KSSQAVLYESRNKDSVA | WANTRES | QQYHRLPLS gave 0.99, 1.20, 1.25.
The variant KSSQSVLYESRNKTSVA | WAHTRED | QQYHRLPLS gave 1.78, 1.87, 1.92.
The variant RSSQSVLYESRNKWSLA | WASTRES | QQYHRLPLS gave 1.96, 1.91, 2.30.
The variant KSSNSVLYESRNKTRVA | WASTRES | QQYHRLPLS gave 6.36, 4.51, 5.49.
The variant KSSNSFLYESRNKMSVA | WASTRES | QQYHRLPLS gave nd, nd, nd.
The variant KSSQSHLYESRNKCSVA | WASTRES | QQTHRLPLS gave nd, nd, nd.
The variant NSSQSVLYESRNKGSVA | WASTRES | QQYHRLSLS gave 2.81, 2.26, 2.74.
The variant KSSQSVLTESRNKSSVA | WANTRES | QQYHRLPLS gave 0.59, 0.76, 0.64.
The variant KSSQSVLYEWRNKGSVA | QASTRES | QQYHRLPLS gave -0.06, 0.26, 0.06.
The variant KSSQSVLYESRPKYSVA | WASTRES | QQYHRLPLS gave 1.41, 1.59, 1.66.
The variant KSSQSVLYESRNKRSVA | SASTRES | QQYHRLFLS gave nd, nd, nd.
The variant KSSQSVLYESRNKMSVA | WASTRES | QVYHRLDLS gave 3.46, nd, 3.17.
The variant KSSQSVLYESRNKQSVA | WASTRES | QQYHRLHPS gave nd, 5.13, nd.
The variant KSSQSVLYESRYKQSVA | WASTRES | QQIHRLPLS gave nd, nd, nd.

A selection of 6 entries from above:

With KSSQSVYYESRQKHSVA | WASTRES | QQYHRLPLS the result was 0.60, 0.90, 0.74.
With KSSQSVLYESRNKRSVA | SASTRES | QQYHRLFLS the result was nd, nd, nd.
With KSCQSVLYESRNKESVA | WASTGES | QQYHRLPLS the result was 4.55, nd, 4.94.
With KSSQSVLYESRNKRSVA | WASTNEF | QQYHRLPLS the result was nd, nd, nd.
With NSSQSVLYESRNKGSVA | WASTRES | QQYHRLSLS the result was 2.81, 2.26, 2.74.
With VSSQSVLYESRNKSSVA | WASQRES | QQYHRLPLS the result was 1.91, 1.77, 1.81.

The measurements come from Engelhart et al. 2022 (doi:10.1038/s41597-022-01779-4) through the FLAb antibody collection.